The values that follow come from patent US20050142634A1, “Novel modulator of non-genomic activity of nuclear receptors (mnar) and uses thereof” (Wyeth, priority 2001, published 2005).

Protein sequences, listed by entry. Tags and fused reporters are not part of them.
UniProt Q92731, whole entry, species assumed: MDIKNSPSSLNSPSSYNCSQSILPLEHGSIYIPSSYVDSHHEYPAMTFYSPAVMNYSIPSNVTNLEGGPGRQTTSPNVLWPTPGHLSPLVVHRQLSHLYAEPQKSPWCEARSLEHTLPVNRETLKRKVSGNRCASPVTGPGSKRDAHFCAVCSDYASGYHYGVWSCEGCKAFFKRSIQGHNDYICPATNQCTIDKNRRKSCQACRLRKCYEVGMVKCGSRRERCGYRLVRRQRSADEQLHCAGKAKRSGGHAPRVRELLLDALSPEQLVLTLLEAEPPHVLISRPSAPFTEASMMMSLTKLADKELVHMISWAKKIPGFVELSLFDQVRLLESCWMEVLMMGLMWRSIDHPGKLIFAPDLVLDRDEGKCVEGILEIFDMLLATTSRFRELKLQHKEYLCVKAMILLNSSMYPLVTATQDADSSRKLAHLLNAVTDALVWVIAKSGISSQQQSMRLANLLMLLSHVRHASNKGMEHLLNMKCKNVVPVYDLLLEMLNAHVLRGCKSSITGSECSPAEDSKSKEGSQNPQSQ

The test addresses ERβ (Homo sapiens, UniProt Q92731). Put plainly: MNAR-ER interaction analysis (flag-MNAR pull-down). The note with it: full-length flag-MNAR, in vitro transcribed/translated full-length ERβ, ligand 1 μM. Type of test: binding.

With `C[C@]12CC[C@@H]3c4ccc(O)cc4CC[C@H]3[C@@H]1CC[C@@H]2O` [E2, 17β-estradiol], the “ERβ interaction with MNAR” value is “enhanced”.
